## Measured affinities in a library of Ab-14 heavy chain variants

From the AlphaSeq antibody data of Engelhart et al. 2022 (doi:10.1038/s41597-022-01779-4), copy in the FLAb collection.

All variants were tested on one target, the spike HR2 peptide PDVDLGDISGINAS (SARS-CoV-2).

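The library (AAYL49) carries one to three amino acid substitutions per variant, with no insertions or deletions. AlphaSeq pools MATa yeast showing the antibodies with MATalpha yeast showing the peptide. Pairs that bind mate more often; barcode pairs of the diploids are counted by sequencing. A regression on co-assayed BCL2-family reference pairs converts the normalised counts of each replicate to an apparent Kd. There are three technical replicates.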

Parent: Ab-14, a human scFv built as VH, a (GGGGS)3 linker, VL. Only the CDRs of the heavy chain vary.
VH: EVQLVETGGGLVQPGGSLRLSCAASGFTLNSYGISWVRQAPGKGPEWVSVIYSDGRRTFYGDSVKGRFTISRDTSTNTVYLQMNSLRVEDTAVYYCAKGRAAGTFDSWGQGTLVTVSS
VL: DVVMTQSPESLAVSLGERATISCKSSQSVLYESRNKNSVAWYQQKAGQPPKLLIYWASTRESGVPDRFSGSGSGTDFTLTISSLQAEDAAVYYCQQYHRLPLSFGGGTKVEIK

Changes read parent residue, position, new residue, counted from the first residue of the VH shown.
Every variant below is changed at Y60 of the VH (sequential numbering).
Values are apparent Kd, the geometric mean of the replicates that gave a signal; lower means stronger binding.
Where no diploid with the target was found in any replicate, the entry reads "no signal": below detection, most likely a poor binder, though not proof of it.
Empty control strains, which show no peptide, gave a signal in 15% of pairings with library AAYL49; the median was 11 µM and 95% of these signals were weaker than 680 nM. No background was subtracted.

Variant Y60H A102I F105L showed 3.5 µM (1 of 3 replicates). For T58Q Y60K R100D, the assay gave 170 µM (1 of 3 replicates). With I51Y Y60L the result was no signal (0 of 3 replicates). Variant Y60C A102I showed no signal (0 of 3 replicates). Variant F59Q Y60P F105M showed 39 µM (1 of 3 replicates).

Variant Y52Q T58E Y60M showed no signal (0 of 3 replicates). For R56S Y60A A101Q, the assay gave 390 nM (3 of 3 replicates). Variant Y60C S63V G103A showed no signal (0 of 3 replicates). Variant Y32A Y60L gave 130 µM (1 of 3 replicates). Variant Y32T Y60I V64K showed 100 µM (2 of 3 replicates).

With Y32T Y60L the result was 920 nM (1 of 3 replicates). With Y52D R56E Y60L the result was no signal (0 of 3 replicates). Variant R56T Y60G S63Y gave no signal (0 of 3 replicates). Variant S35I Y60M R100V showed 370 nM (1 of 3 replicates). Variant Y52C Y60G D62K gave 31 µM (1 of 3 replicates).

Variant L29Y Y60T showed no signal (0 of 3 replicates). Variant R57Q Y60A G103Q showed no signal (0 of 3 replicates). For F27S Y60Q, the assay gave no signal (0 of 3 replicates). With V50L Y60T S63Q the result was no signal (0 of 3 replicates). With S53P Y60F G103T the result was 3.3 µM (1 of 3 replicates).

Variant I34P Y60M S107R gave 8.7 µM (1 of 3 replicates). Variant Y60K S63R S107Y gave no signal (0 of 3 replicates). Variant F27T I51D Y60D showed no signal (0 of 3 replicates). Variant D54N Y60I K65F gave 3.9 µM (1 of 3 replicates). Variant R56G Y60F A102I gave 15 µM (3 of 3 replicates).

With S53I G55I Y60K the result was 39 µM (1 of 3 replicates). With D54S Y60H the result was no signal (0 of 3 replicates). With G55K Y60T F105M the result was no signal (0 of 3 replicates). Variant N30I Y60F showed no signal (0 of 3 replicates). Variant G26E F27Y Y60G gave 20 µM (3 of 3 replicates).

Variant I51A Y60I A101S gave no signal (0 of 3 replicates). For Y60D G61C S63M, the assay gave no signal (0 of 3 replicates). Variant Y32F G33Y Y60W gave no signal (0 of 3 replicates).

Excerpt, the final 5 entries:

N30I Y60F: no signal (0 of 3 replicates).
G26E F27Y Y60G: 20 µM (3 of 3 replicates).
I51A Y60I A101S: no signal (0 of 3 replicates).
Y60D G61C S63M: no signal (0 of 3 replicates).
Y32F G33Y Y60W: no signal (0 of 3 replicates).

Parent in this assay: reference entry 4.4 nM, copy in this library 13 µM (one replicate of three).